Literature values as cited in patent publication US9662059B2, “Imaging agents for monitoring changes of dopamine receptors and methods of using thereof” (The Regents of the University of California, priority 2007, dated 2017).

Tested on: D2R
Conditions: Rubi et al., J Biol Chem 2005; cited from earlier work

CCCN1CCC[C@@H]2Cc3n[nH]cc3C[C@H]21 [Quinpirole]
effect on glucose-dependent insulin secretion: inhibited glucose-dependent insulin secretion
